High-throughput results deposited in PubChem BioAssay by National Center for Advancing Translational Sciences (NCATS).
Rows were chosen to be rich in hits. Some 0.62% of all compounds tested hit in one or more screens of this group.
TSHR antagonist – blocks TSH signaling through the human TSH receptor. TSHR-expressing cells, TSH-stimulated cAMP HTRF, 2 h; stronger effect = lower value. activity change, negative = inhibition, % at 11.5 µM. 330,000 tested, 0.2% active. AID 504810;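 active = activity change below a set negative limit, meaning inhibition stronger than a set level, cut at about -70% in these data; inconclusive = activity change between two set negative limits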
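Cell-based HTRF cAMP assay; TSHR cells + compound, TSH EC80 (4nM final), 2 h, 37 deg C. Lysis with anti-cAMP cryptate and cAMP-d2, 30 min RT, read 665/620 nm.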
pAkt inh – Akt phosphorylation inhibition | 360,000 tested, 0.32% active | Neuro2A IGF-stimulated pAkt S473 HTRF, 20 min; stronger effect = lower value | AID 651550 | activity change, % for hits at 50 µM; in the data active = activity change below about -80%; inconclusive = mostly about -51% to -80%
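Neuro2A cells in DMEM with 0.5% FBS, overnight at 37 deg C, given compound at single 50 µM final, then IGF (6 nM final) for 20 min at 37 deg C. Lysed; phospho-Akt Ser473 by HTRF after 24 h, 665/615 ratio.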
Rango complex inh – prevents formation of the Rango-importin beta complex; Potency, µM (series often up to 92.2 µM); Q14974; 340,000 tested, 0.031% active; AID 540263; Rango CFP/YFP FRET sensor + importin beta, 45 min; note: nearly all actives have a fitted effect of over 15% in size
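FRET biosensor Rango (snurportin 1 IBB between N-terminal EYFP and C-terminal Cerulean), 50 nM in PBS/1 mM DTT/0.02% Tween-20/0.1% BSA, preincubated 5 min RT with compound; 0.125 microM importin beta added, 45 min RT, CFP/YFP FRET ratio read.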
Rango dissoc inh – inhibitors of RanGTP-induced Rango-importin beta complex dissociation | Potency, µM (top dose mostly 46.1 µM) | Biochemical FRET Rango-importin beta, RanGTP-induced dissociation | 340,000 tested, 0.071% active; note: nearly all actives have a fitted effect of over 45% in size
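Two FRET readings bracket the reaction: one 5 min after compound meets Rango–importin beta, another 45 min after RanGTP-RCC1 (0.6 uM Ran, 0.2 uM RCC1, 2 mM GTP) is added. Only the second defines inhibition.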
p53 reactivation – restores transcriptional activity of mutant p53. H1299 p53-A138V BP100-luciferase reporter, luminescence, 24 h. Potency, µM (doses to about 92.2 µM), hits mostly activators. 320,000 tested, 0.063% active; active = well fitted activation curve with a large enough effect; inconclusive = small, poorly fitted or top-dose-only effect; inactive = no such curve, though single readings can be large or run the other way; note: nearly all actives have a fitted effect of over 45% in size
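p53-null H1299 cells stably carrying temperature-sensitive p53-A138V and a BP100-luciferase reporter were pinned with compounds (4-point, 1:5 series) and held 24 hrs at 37 deg C. Luminescence was read 10 min after detection reagent.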
A number is an active result; n = inactive; u = inconclusive; x = no result given. Unless noted, calls come from the whole dose curve.

SMILES	TSHR antagonist	pAkt inh	Rango complex inh	Rango dissoc inh	p53 reactivation
Cc1cccc(C)c1NC(=O)c1nc(S(=O)(=O)Cc2ccccc2)ncc1Cl	u	n	n	n	n
COc1ccc(OC)c(NC(=O)c2nc(S(=O)(=O)Cc3ccccc3)ncc2Cl)c1	-93	n	n	n	n
COc1ccc(NC(=O)c2nc(S(=O)(=O)Cc3cccc(C)c3)ncc2Cl)c(OC)c1	-80	n	n	n	n
COc1ccc(N2CCN(c3ccc4nnc(CCC(=O)Nc5ccc(C)cc5)n4n3)CC2)cc1	n	n	n	n	n
COc1ccc(Cc2ccccc2C(=O)O)cc1	x	n	n	n	x
COc1ccc(CC2=CC(=O)c3ccccc3C2=O)cc1	-83	n	n	n	n
CN1CCN(Cc2cc(=O)oc3ccc(Cl)cc23)CC1	n	-104%	n	n	n
CC(=O)c1cc2c(C)c(C(=O)c3ccccc3)oc2cc1O	n	n	6.5µM	u	n
Cc1ccc2cc(C)c3nnc(SCC(=O)Nc4nc5c(s4)CCCC5)n3c2c1C	n	n	n	n	n
N#C/C(=C\c1ccc(Oc2ccc(C(F)(F)F)cc2[N+](=O)[O-])cc1)c1nc2ccccc2[nH]1	-71	n	u	n	n
COc1ccc(N=Nc2nc(-c3ccccc3)c(-c3ccccc3)[nH]2)cc1	n	n	n	n	n
COc1ccc(-c2nc(C)ncc2N=Nc2ccccc2)cc1	n	-114%	n	n	n
Cc1ncc(N=Nc2ccc(F)cc2)c(-c2ccc(Cl)cc2)n1	n	-118%	n	n	n
CCc1nc2c(OCc3cccc(Cl)c3)cccn2c1N(C)C(=O)Nc1ccccc1OC	x	n	x	x	x
CCCCC1(CC)COC(c2ccccc2)OC1 (configuration not stated)	x	n	n	n	x
NS(=O)(=O)c1ccc(N=Nc2c[nH]c(=O)c(O)c2)cc1	n	n	u	23µM	n
C=C1/C=C(\C)[C@](C)(O)C[C@H](O)CC(=O)[C@H](O)[C@@H](O)[C@H](C)C[C@H](C)OC(=O)/C(C)=C/CC/C=C/[C@@H]2O[C@H]2C[C@H](C)C1	n	x	x	x	n
C(=N\n1cnnc1)/c1ccc(OCc2cccc3ccccc23)cc1	n	-134%	n	n	n
CCCCOc1ccc(C(=O)NCC(=O)NCC(=O)OCC)cc1	n	n	n	n	n
CCOC(=O)CNC(=O)CNC(=O)c1ccc(OC)cc1	n	-108%	n	n	n
Cc1c(NC(=O)c2cc(-n3cnnc3)ccc2Cl)cccc1-c1nc2ccccc2s1	n	-88%	n	n	n
O=C(NCCc1ccccc1)C1CCC(=O)N1CCc1ccccc1 (configuration not stated)	n	n	n	n	n
CCOc1ccc(CCNC(=O)C2CCC(=O)N2CCc2ccccc2)cc1OCC (configuration not stated)	n	-82%	n	n	n
Cc1[nH]nc2c1C(=O)CC(C)(C)C2	n	-110%	n	u	n
Cc1[nH]nc2c1/C(=N\O)CC(C)(C)C2	n	n	n	n	n
SMILES	TSHR antagonist	pAkt inh	Rango complex inh	Rango dissoc inh	p53 reactivation
CC(Cc1cccs1)NC(=O)Nc1ccc(Cl)c(Cl)c1 (configuration not stated)	n	-103%	n	n	n
CCCCNC(=O)Cc1coc2ccc3ccccc3c12	n	-110%	n	n	n
COCCCNC(=O)Cc1coc2ccc3ccccc3c12	n	n	n	n	n
O=C(CCN1C(=O)c2ccccc2C1=O)NC1=NCCS1	n	-112%	n	n	n
Cc1cccc(NC(=O)CCCN2C(=O)c3ccccc3C2=O)n1	n	-111%	n	n	n
Cc1cccc(NC(=O)CCCCCN2C(=O)c3ccccc3C2=O)n1	n	n	n	n	n
Cc1nnc(SC(C)C(=O)NC2CCCCC2C)s1 (configuration not stated)	n	n	n	n	n
COc1cccc2c1C(=O)c1c(O)c3c(c(O)c1C2=O)C[C@@](O)(C(=O)CO)C[C@@H]3O[C@H]1C[C@H](N)[C@@H](O)[C@H](C)O1	x	n	n	n	x
COc1cccc2c1C(=O)c1c(O)c3c(c(O)c1C2=O)CC(O)(C(=O)CO)CC3OC1CC(N(C)C)C(O)C(C)O1 (configuration not stated)	x	n	58µM	n	x
Cc1ccc(N2C(S)=C(C#N)C(=O)NC2c2cccs2)cc1 (configuration not stated)	n	n	n	n	u
COc1ccc([C@H]2C[C@@H](O)[C@H](n3cc(COC(=O)c4ccccc4)nn3)CN2C(=O)c2cccs2)cc1	x	n	x	x	x
CCO/C=C1/C(=O)N(c2ccc(OC)cc2)C(=O)c2ccccc21	n	n	u	u	n
CCO/C=C1\C(=O)N(c2ccccc2)C(=O)c2ccccc21	n	n	u	13µM	n
O=C(OCc1ccccc1)c1ccc(Br)o1	n	-107%	n	n	n
CC(C)CC(=O)Nc1ccc(C(=O)NN2C(=O)c3ccccc3C2=O)cc1	n	n	n	n	n
Cc1c(Cc2ccccc2)c(=O)oc2cc(OCC(=O)NCC3CCC(C(=O)O)CC3)ccc12 (configuration not stated)	n	n	n	n	n
O=C(NC1CCCCCC1)c1[nH]c(C(F)(F)F)nc1-c1ccccc1	x	n	x	x	x
CCOc1ccc(N(CC(=O)NCc2ccc(OC)cc2)C(=O)CCC(=O)Nc2nccs2)cc1	n	n	n	n	n
CCOc1ccc(N(CC(=O)NCc2ccc(F)cc2)C(=O)CCC(=O)Nc2nccs2)cc1	-95	n	n	n	n
COC(=O)C1C(O)=C(C=NCc2ccccc2)C(=O)CC1(C)C (configuration not stated)	n	-114%	n	n	n
COC(=O)C1C(O)=C(C=Nc2cccc3ccccc23)C(=O)CC1(C)C (configuration not stated)	n	n	u	u	n
COc1cccc(OCCSc2nnc3sc4ccccc4n23)c1	n	-112%	n	n	n
CN(C)C(=O)C12CCC(C)(c3nc4ccccc4nc31)C2(C)C (configuration not stated)	n	n	n	n	n
Cc1cc2nc3c(nc2cc1C)C1(C(=O)N(C)C)CCC3(C)C1(C)C (configuration not stated)	n	-110%	u	u	n
Cc1c(C(=O)N2C[C@@H](C)O[C@@H](C)C2)oc2c(F)cccc12	n	n	n	n	u
Cc1ccc(C(C)C)c(Oc2cnccn2)c1	n	n	n	n	n
Cc1nn(C)cc1C1C2=C(CC(C)(C)CC2=O)N(c2ccccc2)C2=C1C(=O)CC(C)(C)C2	n	n	u	8.2µM	n
Cc1ccc(N2C3=C(C(=O)CC(C)(C)C3)C(c3cn(C)nc3C)C3=C2CC(C)(C)CC3=O)cc1	x	n	u	u	x
Cc1ccc(/C=C2\Sc3ccccc3C2=O)s1	n	n	u	2.9µM	n
